Sequences of proteins named here, by UniProt entry; tags and fusion partners are left off.
Importin subunit beta-1 (Homo sapiens), Q14974, UniProt Q14974, whole entry, looked up: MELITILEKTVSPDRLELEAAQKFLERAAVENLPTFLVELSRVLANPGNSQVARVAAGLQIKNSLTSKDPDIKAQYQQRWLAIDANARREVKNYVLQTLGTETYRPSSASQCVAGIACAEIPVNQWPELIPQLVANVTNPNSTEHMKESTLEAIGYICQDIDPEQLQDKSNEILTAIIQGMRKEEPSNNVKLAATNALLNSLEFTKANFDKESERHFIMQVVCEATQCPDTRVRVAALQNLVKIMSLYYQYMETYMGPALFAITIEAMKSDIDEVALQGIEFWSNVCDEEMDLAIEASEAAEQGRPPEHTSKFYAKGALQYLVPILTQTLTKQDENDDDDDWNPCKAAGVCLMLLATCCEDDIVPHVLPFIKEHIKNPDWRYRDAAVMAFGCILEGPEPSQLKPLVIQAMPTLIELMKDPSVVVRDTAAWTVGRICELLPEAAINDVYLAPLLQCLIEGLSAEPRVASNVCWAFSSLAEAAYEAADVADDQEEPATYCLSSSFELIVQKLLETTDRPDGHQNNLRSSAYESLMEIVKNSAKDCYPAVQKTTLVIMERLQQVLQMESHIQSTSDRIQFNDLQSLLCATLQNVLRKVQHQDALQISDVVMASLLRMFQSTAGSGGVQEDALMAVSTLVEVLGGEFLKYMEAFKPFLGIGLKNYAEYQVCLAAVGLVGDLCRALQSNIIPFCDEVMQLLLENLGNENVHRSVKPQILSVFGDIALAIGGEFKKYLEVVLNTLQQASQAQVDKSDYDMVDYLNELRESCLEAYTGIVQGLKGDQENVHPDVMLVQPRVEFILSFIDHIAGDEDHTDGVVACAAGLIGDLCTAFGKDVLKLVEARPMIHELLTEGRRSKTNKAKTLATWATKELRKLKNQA

# The list is not random: actives were taken first. Their share in the collection is about 0.43%.
# EPAC1 antag: qHTS for Antagonist of cAMP-regulated guanine nucleotide exchange factor 3 (EPAC1): primary screen; EPAC1 GEF assay, Rap1b-BODIPY-GDP exchange fluorescence; Potency, µM (doses to about 115 µM), for the others: top-dose activity change, negative = inhibition, hits mostly inhibitors; actives 0.14% (n = 360,000); AID 720709, 2013;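 note: plate controls were vehicle for no effect and positive control for full effect; nearly all actives have a fitted effect of over 50% in size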
# EPAC2 agonist: qHTS for Agonist of cAMP-regulated guanine nucleotide exchange factor 4 (EPAC2): primary screen; EPAC2 activation, biochemical qHTS; response scale: 100% = 6.5 mM cAMP response; AID 720711, 2013; Potency, µM (doses to about 154 µM), for inactives: at the top dose activation, usual class: activators; actives 0.079% (n = 360,000); note: nearly all actives have a fitted effect of over 50% in size
#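 Each well held 100 nM EPAC2, 250 nM RAP1B-BODIPY-GDP and 50 uM GDP. Fluorescence, read at 5-min intervals to 30 min, was referenced to a 6.5 mM cAMP positive control.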
# EPAC2 antagonist: qHTS for Antagonist of cAMP-regulated guanine nucleotide exchange factor 2 (EPAC2): primary screen; AID 720708, 2013; actives 0.18% (n = 360,000); Potency, µM (series often up to 114 µM), inactives show at the highest dose activity, negative = inhibition, actives largely listed as inhibitors; Rap guanine nucleotide exchange factor 4 (Homo sapiens), Q8WZA2; EPAC2 GEF exchange of Rap1B-BODIPY-GDP, fluorescence; note: % is set by controls: 0 for no effect and ±100 for the full control effect; nearly all actives have a fitted effect of over 45% in size
# EPAC1 ag: qHTS for Agonist of cAMP-regulated guanine nucleotide exchange factor 3 (EPAC1): primary screen; actives 0.073% (n = 360,000); Potency, µM (highest dose often 154 µM), for the others: at the highest dose activation, most hits filed as activators; Rap guanine nucleotide exchange factor 3 (Homo sapiens), O95398; EPAC1 agonist qHTS, biochemical assay; response scale: 100% = response to 6.5 mM cAMP; AID 720707, 2013; note: nearly all actives have a fitted effect of over 60% in size
#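 Fluorescent GDP-exchange assay: 100 nM EPAC1 with 250 nM Rap1B preloaded with BODIPY-GDP and 50 uM GDP; compounds tested as concentration series, 5 min at room temperature, then read every 5 min for 30 min (ex 480/em 540 nm); normalized to 6.5 mM cAMP.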
# Rango-impB inh: qHTS Assay for Inhibitors of Rango (Ran-regulated importin-beta cargo) - Importin beta complex formation. AID 540263, 2011. Potency, µM (titrated, usually from 92.2 µM), inactives show top-dose inhibition of complex formation. Rango CFP/YFP FRET sensor + importin beta, 45 min. Importin subunit beta-1 (Homo sapiens), Q14974. actives 0.031% (n = 340,000); calls by dose curve;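 note: 0% = DMSO wells and 100% = buffer wells lacking importin beta; nearly all actives have a fitted effect of over 15% in size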
#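 FRET biosensor (snurportin 1 IBB flanked by EYFP and cerulean), 50 nM, with compound 5 min, then 0.125 microM importin beta in PBS, 1 mM DTT, 0.02% Tween-20, 0.1% BSA. CFP/YFP ratio read after 45 min at room temperature; pre-read flags interference.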
# Rango dissoc inh: qHTS Assay for Inhibitors of RanGTP induced Rango (Ran-regulated importin-beta cargo) - Importin beta complex dissociation; Snurportin-1 (Homo sapiens) + GTP-binding nuclear protein Ran (Homo sapiens) + Importin …; Biochemical FRET Rango-importin beta, RanGTP-induced dissociation; Potency, µM (doses to about 46.1 µM), for the others: top-dose activity change, negative = inhibition; actives 0.071% (n = 340,000); AID 540253, 2011; calls by dose curve; note: % of control where 0% means no effect; nearly all actives have a fitted effect of over 45% in size
#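 Quantitative HTS using a FRET biosensor: 0.1 uM Rango, 0.25 uM importin beta, 0.6 uM Ran, 2 mM GTP, 0.2 uM RCC1 final, PBS with DTT, Tween-20 and BSA. Post-read taken 45 min after Ran addition.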
# * marks the source's active call; other numbers are inactive results; ? = inconclusive; . = no result; [ ] = remark or other dose. Unless noted, calls come from the whole dose curve; as a rule, active = well fitted curve in the direction sought with a large enough effect; inconclusive = small, poorly fitted or top-dose-only effect, or another doubt; inactive = no such curve, though single readings can be large; an effect the other way counts as inactive or inconclusive. Potency is the fitted concentration of half-maximal effect.
Molecule,EPAC1 antag,EPAC2 agonist,EPAC2 antagonist,EPAC1 ag,Rango-impB inh,Rango dissoc inh
CNC(=O)c1c(NC(=O)c2ccc(S(=O)(=O)N(C)c3ccccc3)cc2)sc2c1CCN(C(C)C)C2,6.7%,?,4.4%,12.2%,?,?
CC(C)N1CCc2c(sc(NC(=O)c3ccc(S(=O)(=O)N4CCc5ccccc54)cc3)c2C(N)=O)C1,?,-26.6%,44.7µM*,-12.2%,?,?
CCCN1CCc2c(sc(NC(=O)CCS(=O)(=O)c3ccccc3)c2C(N)=O)C1,-9.9%,13.3%,-3.8%,7.4%,?,?
CCOC(=O)N1CCc2c(sc(NC(=O)c3ccc(S(=O)(=O)N4CCCC4)cc3)c2C#N)C1,-8.6%,4.8%,-0.9%,-3.3%,?,?
COc1cc(/C=N/n2c(-c3cc(C)[nH]n3)n[nH]c2=S)cc(OC)c1OC,-14.9%,11.9%,-3.0%,7.9%,1.4%,-11.2%
CN(C)c1ccc(/C=C2\C(=N)N3N=C(CC(=O)N4CCCCC4)SC3=NC2=O)cc1,-8.7%,100µM*,9.8%,7.7%,?,?
N=C1/C(=C\c2ccc(Br)o2)C(=O)N=C2SC(CC(=O)N3CCCCC3)=NN12,-19.3%,-1.9%,4.7%,-3.1%,?,6.51µM*
Cc1ccc(/C=C2/C(=N)N3N=C(CC(=O)N4CCCC4)SC3=NC2=O)o1,3.8%,7.3%,5.9%,1.6%,0.4%,7.4%
COC(=O)C1(S(=O)(=O)c2cc(Br)cc3c2N(C(C)=O)CC3)CC1,9.6%,3.1%,-3.7%,-0.8%,-1.9%,7.1%
Cc1ccc(S(=O)(=O)N2CCCN(S(=O)(=O)c3ccc(C(F)(F)F)cc3)CC2)cc1,-13.1%,1.4%,2.0%,0.4%,-2.4%,13.0%

# Single records, as listed above.
# `Cc1ccc(/C=C2/C(=N)N3N=C(CC(=O)N4CCCC4)SC3=NC2=O)o1` across the screens: EPAC1 antag = 3.8%; EPAC2 agonist = 7.3%; EPAC2 antagonist = 5.9%; EPAC1 ag = 1.6%; Rango-impB inh = 0.4%; Rango dissoc inh = 7.4%
# `COc1cc(/C=N/n2c(-c3cc(C)[nH]n3)n[nH]c2=S)cc(OC)c1OC` across the screens: EPAC1 antag = -14.9%; EPAC2 agonist = 11.9%; EPAC2 antagonist = -3.0%; EPAC1 ag = 7.9%; Rango-impB inh = 1.4%; Rango dissoc inh = -11.2%
# `CN(C)c1ccc(/C=C2\C(=N)N3N=C(CC(=O)N4CCCCC4)SC3=NC2=O)cc1` across the screens: EPAC1 antag = -8.7%; EPAC2 agonist = 100µM*; EPAC2 antagonist = 9.8%; EPAC1 ag = 7.7%; Rango-impB inh = ?; Rango dissoc inh = ?

# Further records follow.
Molecule,EPAC1 antag,EPAC2 agonist,EPAC2 antagonist,EPAC1 ag,Rango-impB inh,Rango dissoc inh
CCOc1cc(/C=C2\SC(=NC)N(C)C2=O)cc(Cl)c1OC(C)=O,-7.1%,6.7%,-18.8%,1.1%,?,4.61µM*[inhibitor]
CCS(=O)(=O)C1=NN2C(=N)/C(=C\c3ccc(OCCOc4cccc(OC)c4)c(OC)c3)C(=O)N=C2S1,?,-1.1%,?,-5.7%,?,-14.3%
CCOc1cc(/C=C2\C(=N)N3N=C(S(C)(=O)=O)SC3=NC2=O)ccc1OCCOc1cccc(OC)c1,50.1µM*,-7.4%,-21.1%,1.9%,-3.0%,-2.2%
CCN1C(=O)c2cccc3c(N)ccc(c23)C1=O,67.7%,63.1µM*,130.1%,100µM*,?,?
Cc1nn(C)c(C)c1N1C(=O)c2cccc3c(Br)ccc(c23)C1=O,2.2%,-1.2%,?,-3.6%,-1.5%,-20.7%
Cc1ccc(N2C(=O)c3cccc4c(N)ccc(c34)C2=O)c2cccnc12,112.8%,100µM*,278.8%,?,?,?
Cc1nn(C)c(C)c1N1C(=O)c2cccc3c(N)ccc(c23)C1=O,93.9%,100µM*,373.7%,100µM*,?,?
Cn1nc([N+](=O)[O-])nc1Oc1ccccc1N,-11.2%,4.9%,-8.1%,-3.1%,?,0.1%
CCCCOCCOC(=O)C1OC1(C)c1ccccc1 (stereo not given),3.7%,-0.3%,0.0%,-7.9%,.,.
COC(=O)c1cn(C(=O)c2cc(OC)c(OC)c(OC)c2)c2ccccc12,0.9%,5.3%,17.8µM*,-1.1%,1.3%,39.5%
O=c1[nH]nc(CNc2ccc(O)cc2)c2ccccc12,35.5µM*,0.1%,7.4%,9.6%,0.7%,3.7%
CS(=O)(=O)c1cnc2c(S(=O)(=O)c3ccccc3)cnn2c1N,7.7%,7.6%,-2.7%,1.1%,0.1%,8.0%
COC(=O)c1ccc2nc(Nc3nc4ccc(F)cc4s3)sc2c1,8.2%,-5.0%,-0.7%,7.4%,?,13µM*
Cc1ccc(OCCNC(=O)[C@H]2O[C@@H](n3ccc(=O)[nH]c3=O)[C@H](O)[C@@H]2O)cc1C,7.1%,6.7%,12.1%,5.1%,.,.
CN1CCN(C2=Nc3c(Cl)cc(Cl)c4cccc2c34)CC1,-23.5%,3.1%,-23.6%,-3.5%,51.7µM*,2.4%
CC(=O)c1ccc(Nc2cc(C)nc3c(C)cc(C)cc23)cc1,0.6%,24.5%,-18.9%,5.8%,0.2%,-16.4%
Cc1cc(C)c2nc(C)cc(Nc3ccc(C(=O)NCCO)cc3)c2c1,-2.1%,6.2%,20µM*,-10.4%,3.3%,-2.1%
O=C(NCc1ccccc1CN1CCCC1)C1CCN(C(=O)c2ccc(F)cc2)CC1,3.3%,2.0%,-3.7%,-2.6%,3.6%,17.8%
CCOc1ccc(S(=O)(=O)Nc2cc(SCC(=O)O)c(O)c3ccccc23)cc1,89.1µM*,11.3%,-4.2%,27.7%,3.1%,-4.0%
Cc1ccc(C)c(S(=O)(=O)Nc2cc(SCC(=O)O)c(O)c3ccccc23)c1,?,3.8%,-5.7%,20.8%,-1.2%,-8.3%
O=C(O)CSc1cc(NS(=O)(=O)c2cccc([N+](=O)[O-])c2)c2ccccc2c1O,?,112µM*,?,24.0%,-0.5%,4.3%
CCc1ccc(S(=O)(=O)Nc2cc(SCC(=O)O)c(O)c3ccccc23)cc1,89.1µM*,10.0%,?,?,3.4%,-10.8%
CCc1nc2ccccc2n1Cc1ccc(F)cc1,6.9%,-9.6%,-21.8%,-6.5%,0.0%,-6.5%
O=C(CCCCCn1c(=S)[nH]c2ccc(N3CCOCC3)cc2c1=O)NCc1cccc(Cl)c1,6.7%,-3.1%,13.3%,-2.4%,?,4.61µM*
O=C(CCCCCn1c(=S)[nH]c2ccc(N3CCOCC3)cc2c1=O)NCc1ccccc1,2.8%,9.3%,13.8%,0.3%,?,?
Cc1cc(C)c(S(=O)(=O)c2ccccc2C)c(SCC(C)C)n1,-19.3%,-12.2%,?,0.8%,0.9%,?
CCCSc1nc(C)cc(C)c1S(=O)(=O)c1ccccc1C,?,-0.1%,10µM*,-4.2%,-0.9%,35.4%
O=C1CCc2cc(NS(=O)(=O)c3ccc([N+](=O)[O-])cc3)cc3c2N1CC3,-7.8%,5.3%,9.6%,79.4µM*,-0.5%,38.4%

# High-throughput results as filed in PubChem.
